The values below are quoted from earlier work in publication PMC8327781 (Journal of medicinal chemistry, 2021).

One series relates to HEK293 cells. To be noted: 10 μM, 72 hours; cited from earlier work.
For the next series, the system named is Expi293F cells. As to conditions: 10 μM, 72 hours; cited from earlier work.

For `N#CC[C@H](C1CCCC1)n1cc(-c2ncnc3[nH]ccc23)cn1` [Ruxolitinib], the Effect on proliferation result in the series with HEK293 cells and in the series with Expi293F cells was “did not affect the proliferation” in each case.
